In US20240293443A1, “HEPARAN SULFATE MIMETICS TO IMPROVE GLUCOSE CLEARANCE” (The Regents of the University of California, priority 2021, published 2024):

Columns and labels:
Ndst1−/− adipocytes = test: 3[H]-2-deoxy-glucose uptake in Ndst1−/− MEF-derived adipocytes; assay type: cell-based, mouse; conditions: 12.5 nM during the first 3 days of adipogenesis
Description: Cells were seeded on a 24-well plate at a density of 30,000 cells/cm^2. Cells were allowed to grow to confluence for 48 hours. At this point (Day 0), the media were removed, cells were washed with PBS, and differentiation media with or without heparin (100 μg/ml) were added. […] On Day 3 of differentiation, cells were washed with PBS and treated with insulin media, which consisted of 2 μM insulin, and 1 μM rosiglitazone in DMEM with 10% FBS. The cellular cholesterol and triglyceride content was determined after lysing cells in 0.1M NaOH. Total plasma cholesterol and plasma triglyceride levels (Sekisui Diagnostics) and protein levels (BCA protein assay) were determined using commercially available kits. Cells are washed twice with PBS and placed into DMEM with 2 mg/mL BSA for two hours. […] The insulin solution is then removed and the cells are washed twice with transport solution before radioactive transport solution is added, which consists of 0.25 μCi/well of 3[H]-2-deoxy-glucose and 0.025 mM 2-deoxy-glucose. […] The radioactive lysate was transferred to a scintillation vial containing 5 mL of Ultima Gold liquid scintillation fluid and analyzed using a liquid Scintillation counter. […] On Day 6, the adipocytes were subjected to the ^3[H]-2-deoxy-glucose uptake assay and the spent media were analyzed for glucose and lactate content as described above.

WT adipocytes = test: 3[H]-2-deoxy-glucose uptake in WT MEF-derived adipocytes; assay type: cell-based, mouse; conditions: Wnt inhibitor treatment during the first 3 days of adipogenesis
Description: Cells were seeded on a 24-well plate at a density of 30,000 cells/cm^2. Cells were allowed to grow to confluence for 48 hours. At this point (Day 0), the media were removed, cells were washed with PBS, and differentiation media with or without heparin (100 μg/ml) were added. […] On Day 3 of differentiation, cells were washed with PBS and treated with insulin media, which consisted of 2 μM insulin, and 1 μM rosiglitazone in DMEM with 10% FBS. The cellular cholesterol and triglyceride content was determined after lysing cells in 0.1M NaOH. Total plasma cholesterol and plasma triglyceride levels (Sekisui Diagnostics) and protein levels (BCA protein assay) were determined using commercially available kits.
Cells are washed twice with PBS and placed into DMEM with 2 mg/mL BSA for two hours. […] The radioactive lysate was transferred to a scintillation vial containing 5 mL of Ultima Gold liquid scintillation fluid and analyzed using a liquid Scintillation counter.
Cells were differentiated for 6 days using the standard adipogenic differentiation protocol described above. […] On Day 6, the adipocytes were subjected to the ^3[H]-2-deoxy-glucose uptake assay and the spent media were analyzed for glucose and lactate content as described above.

O=C(Nc1ccc([N+](=O)[O-])cc1Cl)c1cc(Cl)ccc1O [Niclosamide] was tested, and the “glucose clearance in differentiated adipocytes” value (Ndst1−/− adipocytes) was “able to enhance glucose clearance” and the “glucose clearance in differentiated adipocytes” value (WT adipocytes) was “unable to significantly enhance glucose clearance”.
